The nature of the assay: Total Fluorescence Counterscreen for Inhibitors of the Interaction of Thyroid Hormone Receptor and Steroid Receptor Coregulator 2. Particulars: TRb/SRC2 Texas Red total fluorescence interference.
Setting [1] is: at 106 µM (top of the series) unless noted.

Molecules are shown by their SMILES. “And” between values parts separate entries of the source, which are not always exact repeats. Equal values may be shown once. The list shows a part of the results, in another mix than the full data. The source made the active and inactive calls. Calls come from the whole dose curve; as a rule, active = well fitted curve in either direction with a large enough effect; inconclusive = small, poorly fitted or top-dose-only effect; inactive = flat fitted curve, though single readings scatter.
% is set by controls: 0 for no effect and ±100 for the full control effect.

For the compound `CCOC(=O)Nc1cccc([As](=O)(O)O)c1`, the fluorescence change, negative = quenching under setting [1] was inactive: -1.41%.

In the case of `CN(N=O)C(=N)N[N+](=O)[O-]`, the fluorescence change, negative = quenching under setting [1] was inactive: -1.63%.

As for `O=P(Nc1ccccn1)(c1cccc2ccccc12)c1cccc2ccccc12`, under setting [1], the fluorescence change, negative = quenching was inactive: 4.14%.

Consider `Cc1cc(SC(NC=O)C(Cl)(Cl)Cl)ncn1` (stereo unspecified), for which the fluorescence change, negative = quenching under setting [1] was inactive: 0.863%.

Regarding `O=[N+]([O-])c1ccc(Nc2ccc(Oc3ccc([N+](=O)[O-])cc3[N+](=O)[O-])cc2)c([N+](=O)[O-])c1`, under setting [1], the fluorescence change, negative = quenching is inactive: -0.424%.

In the case of `CCOC(=O)Nc1ccc([As](=O)(O)O)c(O)c1`, the fluorescence change, negative = quenching under setting [1] is inactive: -4.72%.

On to `Cc1cc(SC(NC(=O)c2ccccc2)C(Cl)(Cl)Cl)nc(C(C)C)n1` (stereo unspecified), for which the fluorescence change, negative = quenching under setting [1] is inactive: 0.0308%.

In the case of `CCOC(=O)c1ccc(NC(=O)C(C)(CCl)SC)cc1` (stereo unspecified), under setting [1], the fluorescence change, negative = quenching was inactive: -4.01%.

Turning to `CCC(C)N(CC(C)C)C(=S)SC(NC(C)=O)C(Cl)(Cl)Cl` (stereo unspecified), the fluorescence change, negative = quenching under setting [1] is inactive: 1.95%.

`COP1(=S)c2c(C)nn(CCC#N)c2N=C(c2ccc(F)cc2)N1C` (stereo unspecified): the fluorescence change, negative = quenching under setting [1] is inactive: -1.33%.

On to `CCCCO[P+](=O)OCCCC`, for which the fluorescence change, negative = quenching under setting [1] was inactive: -3.59% [at 201 µM].

Take `COc1ccc(N/C(=N/P(=O)(N2CCOCC2)N2CCOCC2)N2CCOCC2)cc1`: under setting [1], the fluorescence change, negative = quenching is inactive: -3.24%.

As to `Cc1c2c(nc3ccccc13)SC(C(Cl)Cl)C2` (stereo unspecified), the fluorescence change, negative = quenching under setting [1] is inactive: -1.66%.

Regarding `Cc1cc(=O)[nH]c(N[N+](=O)[O-])n1`, under setting [1], the fluorescence change, negative = quenching is inactive: -0.511%.

In the case of `O=C(OC1CN2CCC1CC2)C12CC3CC(CC(C3)C1)C2` (stereo unspecified), under setting [1], the fluorescence change, negative = quenching was inactive: -1.21%.

Turning to `COc1cc(I)ccc1[As](=O)(O)O`, the fluorescence change, negative = quenching under setting [1] is inactive: -2.65%.

`COc1ccc2nc(NP(=O)(c3ccccc3)c3ccccc3)sc2c1`: the fluorescence change, negative = quenching under setting [1] is inactive: -1.41%.

As to `ClCCSc1nnc(-c2cccnc2)o1`, the fluorescence change, negative = quenching under setting [1] is inactive: -3.01%.

Consider `CC(C)c1ccc(OP(=O)(Nc2ccccn2)Oc2ccccc2F)cc1` (stereo unspecified), for which the fluorescence change, negative = quenching under setting [1] was inactive: -0.716%.

On to `O=[N+]([O-])c1cc([N+](=O)[O-])c(-c2ccn[nH]2)s1`, for which, under setting [1], the fluorescence change, negative = quenching is inactive: -0.757%.

With `CC(C)NC(=O)NP(=O)(Oc1ccccc1)Oc1ccccc1`, the fluorescence change, negative = quenching under setting [1] is inactive: 1.53%.

For `CCN(CC)C(=S)SC(NC=O)C(Cl)(Cl)Cl` (stereo unspecified), under setting [1], the fluorescence change, negative = quenching was inactive: -1.83%.

On to `C[As](=O)(O)c1cccc(C(=O)O)c1`, for which the fluorescence change, negative = quenching under setting [1] was inactive: -1.62%.

For the compound `O=[As](O)(c1ccc(O)cc1)c1ccccc1O`, the fluorescence change, negative = quenching under setting [1] is inactive: -2.31%.

Take `Cc1ccc(OP(=O)(Nc2ccc([N+](=O)[O-])cn2)Oc2ccc(C)cc2)cc1`: under setting [1], the fluorescence change, negative = quenching was inactive: -1.17%.

Turning to `Cc1ccc2nc3c(c(C)c2c1)CC(C(Cl)Cl)S3` (stereo unspecified), the fluorescence change, negative = quenching under setting [1] was inactive: -18.4%.

On to `O=[N+]([O-])CC(O)c1ccc([N+](=O)[O-])cc1` (stereo unspecified), for which the fluorescence change, negative = quenching under setting [1] is inactive: -3.27%.

For the compound `NC(=O)Nc1ccc([As](=O)(O)O)cc1`, the fluorescence change, negative = quenching by setting is: (at 53 µM (top of the series)) inactive: -4.01%; (at 106 µM (top of the series)) inactive: -1.55% and inactive: -1%.

For the compound `CN(C(=O)Cc1ccccc1)[C@@H]1CC[C@]2(CCCO2)C[C@H]1N1CCCC1`, the fluorescence change, negative = quenching under setting [1] was inactive: -4.59%.

Take `CCOP1(=S)c2c(C)nn(CCC#N)c2N=C(c2ccc(F)cc2)N1C` (stereo unspecified): the fluorescence change, negative = quenching under setting [1] is inactive: -0.684%.

Turning to `O=[N+]([O-])c1ccc2c(c1)nnn2O`, the fluorescence change, negative = quenching under setting [1] was inactive: -3.63%.

As to `O=P(Nc1nccs1)(Oc1ccccc1)Oc1ccccc1`, the fluorescence change, negative = quenching under setting [1] was inactive: -2.26%.

Turning to `O=P(Nc1nccs1)(c1ccccc1)c1nc2ccccc2s1` (stereo unspecified), the fluorescence change, negative = quenching under setting [1] is inactive: -0.657%.

Consider `CCOP1(=S)c2c(C)nn(CCC#N)c2N=C(c2ccccc2F)N1C` (stereo unspecified), for which, under setting [1], the fluorescence change, negative = quenching is inactive: 0.164%.

For `CS(=O)(=O)c1cc([N+](=O)[O-])c2no[n+]([O-])c2c1`, under setting [1], the fluorescence change, negative = quenching is inactive: -4.61%.

In the case of `Nc1ccccc1[As](=O)(O)c1ccccc1`, under setting [1], the fluorescence change, negative = quenching was inactive: -1.83%.

Regarding `O=C(O)COc1ccc([As](=O)(O)O)cc1[N+](=O)[O-]`, the fluorescence change, negative = quenching under setting [1] was inactive: -0.519%.

Regarding `Cc1ccc(NCCc2c([N+](=O)[O-])cc([N+](=O)[O-])cc2[N+](=O)[O-])cc1`, the fluorescence change, negative = quenching under setting [1] was inactive: 3.61%.

`Nc1cccc2c([As](=O)(O)O)cccc12`: the fluorescence change, negative = quenching under setting [1] is inactive: 6.22%.

For the compound `CCCOP(=S)(Nc1nc(N)cc(=O)[nH]1)OCCC`, the fluorescence change, negative = quenching under setting [1] was inactive: -1.9%.

Regarding `CCOP(=O)(Nc1cccc2ccccc12)OCC`, the fluorescence change, negative = quenching under setting [1] was inactive: -1.23%.

For the compound `COc1cc(C2NCCC3(OCCO3)C2(C)C)cc(OC)c1OC` (stereo unspecified), under setting [1], the fluorescence change, negative = quenching was inactive: 0.187%.

In the case of `CN(C(=O)Cc1ccc(Cl)c(Cl)c1)[C@@H]1CC[C@]2(CCCO2)C[C@H]1N1CCCC1`, the fluorescence change, negative = quenching under setting [1] was inactive: -2.21% and inactive: -4.19%.

For `O=C(OC1CN2CCC1CC2)c1ccc(Cl)cc1` (stereo unspecified), under setting [1], the fluorescence change, negative = quenching is inactive: 1.01%.

As to `O=[As](O)(O)c1cccnc1`, under setting [1], the fluorescence change, negative = quenching was inactive: -4.57%.

`COc1cc(C(=O)NCC2(N3CCOCC3)CCCCC2)cc(Cl)c1OC(C)C`: the fluorescence change, negative = quenching under setting [1] is inactive: -1.72%.

With `O=[As](O)(c1cccc(O)c1)c1cccc(O)c1`, under setting [1], the fluorescence change, negative = quenching is inactive: -5.54%.

For the compound `ClP(Cl)c1ccccc1`, the fluorescence change, negative = quenching under setting [1] is inactive: -1.76% [at 201 µM].

Take `CC(C)/C=N\N=C(\N)N[N+](=O)[O-]`: the fluorescence change, negative = quenching under setting [1] is inactive: 0.686%.

As to `O=[As](O)(c1ccccc1Br)c1ccccc1Br`, the fluorescence change, negative = quenching under setting [1] was inactive: -4.77%.

For the compound `O=P1(Nc2ccccn2)COc2ccccc2OC1`, under setting [1], the fluorescence change, negative = quenching was inactive: -0.738%.

With `CCOP(=O)(Nc1ccc(C)cn1)OCC`, the fluorescence change, negative = quenching under setting [1] is inactive: 0.833%.

In the case of `COP(=S)(Cl)OC`, the fluorescence change, negative = quenching under setting [1] was inactive: -3.44% [at 201 µM].

On to `CC(C)(C)C(=O)NC(Sc1ncccn1)C(Cl)(Cl)Cl` (stereo unspecified), for which the fluorescence change, negative = quenching under setting [1] was inactive: -1.11%.

As to `Clc1n[nH]nc1-c1nn[nH][15n]1`, the fluorescence change, negative = quenching under setting [1] was inactive: -3.7%.

Regarding `O=P1(Nc2ncccn2)COc2ccccc2OC1`, the fluorescence change, negative = quenching under setting [1] was inactive: 3.93%.

As to `Nc1cccc([As](=O)(O)c2ccccc2)c1`, the fluorescence change, negative = quenching under setting [1] is inactive: -2.7%.

Take `O=[As](O)(c1cccs1)c1cccs1`: under setting [1], the fluorescence change, negative = quenching was inactive: -7.02%.

Turning to `O=P1(Nc2ccc(Br)cn2)COc2ccccc2OC1`, the fluorescence change, negative = quenching under setting [1] is inactive: 0.808%.

On to `CC1CCC(C(C)C)C(OP(=O)(Nc2ccccn2)c2ccccc2)C1` (stereo unspecified), for which the fluorescence change, negative = quenching under setting [1] is inactive: 0.354%.

Take `Cc1nn(-c2ccccc2)c2c1P(=O)(N1CCOCC1)N(C)C(c1ccccc1)=N2` (stereo unspecified): the fluorescence change, negative = quenching under setting [1] is inactive: 0.634%.

With `CN(C)C1(CNC(=O)c2ccc(S(C)(=O)=O)cc2)CCCCC1`, the fluorescence change, negative = quenching under setting [1] is inactive: 0.71%.

For `O=[As](O)(c1ccccc1)c1ccc(O)cc1`, under setting [1], the fluorescence change, negative = quenching was inactive: -6.74%.

Turning to `CC(=O)NC(SC(=S)N(C)C)C(Cl)(Cl)Cl` (stereo unspecified), under setting [1], the fluorescence change, negative = quenching is inactive: 1.29%.

As to `O=[N+]([O-])c1ncn(CCn2cnc([N+](=O)[O-])n2)n1`, under setting [1], the fluorescence change, negative = quenching was inactive: 4.29%.
